## Yeast mating assay 1: variants of the scFv Ab-14

Target peptide (SARS-CoV-2 spike, HR2 region): PDVDLGDISGINAS

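Library AAYL49 holds single substitutions and randomly drawn double and triple substitutions in the CDRs. Affinity was read by AlphaSeq, a pooled yeast mating assay with surface-displayed partners. Mating (16 h, 30 °C) was followed by selection of diploids and sequencing of their barcodes. Read counts were normalised to the haploid input and turned into Kd by a linear fit to BCL2-family pairs of known affinity, for each replicate. The assay was run in three technical replicates.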

Ab-14 is the parent antibody, in scFv form: VH, then three GGGGS repeats, then VL. The light chain is unchanged in all variants.
VH: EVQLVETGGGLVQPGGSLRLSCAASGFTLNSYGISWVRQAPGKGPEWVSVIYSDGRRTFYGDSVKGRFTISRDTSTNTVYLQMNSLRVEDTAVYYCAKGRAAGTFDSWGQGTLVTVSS
VL: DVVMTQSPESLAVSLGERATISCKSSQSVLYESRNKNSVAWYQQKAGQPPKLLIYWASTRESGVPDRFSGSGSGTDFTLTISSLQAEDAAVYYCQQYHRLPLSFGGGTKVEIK

Each variant is given by its three heavy chain CDRs, as the data file delimits them; those of the parent are GFTLNSYGIS, VIYSDGRRTFYGDSVK, GRAAGTFDS.
Affinities are written as log10 Kd with Kd in nM; a lower number is a better binder.
A mean of the replicates is given; it leaves out those without a signal.
"n.d." marks a missing value. The strain was present, yet no cells mated with the target were sequenced in that replicate, which points to weak or no binding.
In this assay the parent's reference entry averaged 0.65; its copy inside this library read 4.11 (one replicate of three).
Nonspecific signal, from three strains lacking the peptide, appeared in 15% of pairings of library AAYL49, centred on 4.06 (5% of these signals below 2.83); values are not corrected for it. For each scFv, signals with the empty controls are counted beside the result, with their mean in brackets.

CDR-H1	CDR-H2	CDR-H3	log10 Kd, replicates	mean, log10 nM	control signals
GFTLNSSGIS	VIYSDGRRTFYGDSVK	GRAAGTFDI	n.d. / n.d. / n.d.	n.d.	0 of 9
GFTLNSYLIS	VIYSSGRRTFYGDSVK	GRAAGTGDS	n.d. / n.d. / n.d.	n.d.	2 of 9 (3.97)
GFTLNSYGIW	VIYSDGRRTFYGDSVM	GRAAGTFDS	n.d. / n.d. / n.d.	n.d.	0 of 9
GFTINKYGIS	VIYSDGRRIFYGDSVK	GRAAGTFDS	4.71 / 4.36 / 6.62	5.23	7 of 9 (5.10)
GFTLNSYGIS	VIYSDGRLTFYGDSVK	GRAAGTFSC	n.d. / n.d. / n.d.	n.d.	0 of 9
GFTLNSYGIS	VIYSDGRRTFYGDSVF	GGAAGTFDS	2.41 / 2.38 / 2.19	2.33	1 of 9 (3.59)
GFTLNSYGIS	VIYSEGRRTFYGDSVK	GRAASTSDS	n.d. / n.d. / n.d.	n.d.	0 of 9
YFTLNSYGIS	VIYSLGRRTFYGDSVK	ARAAGTFDS	n.d. / n.d. / n.d.	n.d.	1 of 9 (4.16)
GFTLNSYPIS	VIYSDGMRTFYGDSVK	GRAHGTFDS	n.d. / 4.17 / n.d.	4.17	3 of 9 (3.95)
GFTLNSYGIS	VDYSDGRRTFYDDSVK	GRIAGTFDS	5.26 / n.d. / n.d.	5.26	1 of 9 (3.86)
GFTLNSYGHS	VIYSHGRRTFYGDSVK	GRAAGTEDS	5.19 / n.d. / n.d.	5.19	2 of 9 (3.01)
GFTRNSYGIS	VIYSDGRRTFYGDSVK	GRAAGIKDS	n.d. / n.d. / n.d.	n.d.	0 of 9
AFTLNSYGIS	VIYSPGGRTFYGDSVK	GRAAGTFDS	n.d. / n.d. / n.d.	n.d.	0 of 9
GFTLNSYGIS	VIYSDGRRMLYGDSVK	GAAAGTFDS	3.25 / 2.59 / 2.37	2.73	3 of 9 (4.17)
GFTLNSYPIS	VIYSHGRRTPYGDSVK	GRAAGTFDS	4.30 / n.d. / n.d.	4.30	2 of 9 (4.94)
GFTKNSYGIS	VIYSDGARTFYGDSVH	GRAAGTFDS	n.d. / n.d. / n.d.	n.d.	0 of 9
GFTLNSYGIV	VIYSDGRRTFYGDSVK	LYAAGTFDS	n.d. / n.d. / n.d.	n.d.	0 of 9
GFTVNRYGIS	VIYSDGRRTFYGDSVK	DRAAGTFDS	n.d. / n.d. / n.d.	n.d.	1 of 9 (4.07)
GFTLNSWGSS	VIKSDGRRTFYGDSVK	GRAAGTFDS	3.97 / n.d. / n.d.	3.97	4 of 9 (4.42)
DYTLNSYGIS	VIYSDGRRTFYGDSVG	GRAAGTFDS	n.d. / n.d. / n.d.	n.d.	0 of 9
GFTLNSYGIS	VFYSWGRGTFYGDSVK	GRAAGTFDS	n.d. / n.d. / n.d.	n.d.	0 of 9
GFTLNSYGIS	EIYSDGFRTFYGDSVK	GRAAGTFDR	n.d. / 2.70 / n.d.	2.70	2 of 9 (4.99)
GFTLNSYGIS	VIYSDGRWTFYGDSVK	GRGAGTEDS	n.d. / 3.20 / n.d.	3.20	1 of 9 (3.22)
GFTLNSYGIS	VITSDGRRTFYGDSAK	GFAAGTFDS	n.d. / n.d. / n.d.	n.d.	0 of 9
GFTLNSYGIS	VLYSDGRRTFYGDSVK	GHAAGLFDS	1.53 / 1.20 / 1.86	1.53	0 of 9
GFTLNSYGTS	VIYSDGRRTFYGDSVK	LRAAGTFDS	n.d. / n.d. / n.d.	n.d.	0 of 9
GFTLNEYGIS	VIQSDGRRTFYGHSVK	GRAAGTFDS	n.d. / 4.85 / n.d.	4.85	2 of 9 (4.19)
GFTLNSYGIS	VIYSDGRRTFYGESVG	GRAAGTFES	4.43 / 3.44 / n.d.	3.94	3 of 9 (4.06)
GFTLNSYGIS	VIYGDGRRTFYGDSVK	GRIAGSFDS	1.56 / 1.54 / 1.36	1.49	2 of 9 (4.31)
WFTLNSYGIS	VIPSDGRRVFYGDSVK	GRAAGTFDS	n.d. / n.d. / 3.60	3.60	0 of 9
GKTLNSYGIS	VIYLDGRRWFYGDSVK	GRAAGTFDS	3.52 / n.d. / n.d.	3.52	0 of 9
GFTLNSYGIS	VIYSDGDRTFYGASVK	GRAATTFDS	n.d. / n.d. / n.d.	n.d.	0 of 9
GFTLNSYGIS	VISSDGRRTFIGDMVK	GRAAGTFDS	n.d. / n.d. / n.d.	n.d.	1 of 9 (3.40)

Picked from the list: the 5 lowest averages where every replicate gave a value.

{"CDR-H1": "GFTLNSYGIS", "CDR-H2": "VIYGDGRRTFYGDSVK", "CDR-H3": "GRIAGSFDS", "log10 Kd, replicates": "1.56 / 1.54 / 1.36", "mean, log10 nM": "1.49", "control signals": "2 of 9 (4.31)"}
{"CDR-H1": "GFTLNSYGIS", "CDR-H2": "VLYSDGRRTFYGDSVK", "CDR-H3": "GHAAGLFDS", "log10 Kd, replicates": "1.53 / 1.20 / 1.86", "mean, log10 nM": "1.53", "control signals": "0 of 9"}
{"CDR-H1": "GFTLNSYGIS", "CDR-H2": "VIYSDGRRTFYGDSVF", "CDR-H3": "GGAAGTFDS", "log10 Kd, replicates": "2.41 / 2.38 / 2.19", "mean, log10 nM": "2.33", "control signals": "1 of 9 (3.59)"}
{"CDR-H1": "GFTLNSYGIS", "CDR-H2": "VIYSDGRRMLYGDSVK", "CDR-H3": "GAAAGTFDS", "log10 Kd, replicates": "3.25 / 2.59 / 2.37", "mean, log10 nM": "2.73", "control signals": "3 of 9 (4.17)"}
{"CDR-H1": "GFTINKYGIS", "CDR-H2": "VIYSDGRRIFYGDSVK", "CDR-H3": "GRAAGTFDS", "log10 Kd, replicates": "4.71 / 4.36 / 6.62", "mean, log10 nM": "5.23", "control signals": "7 of 9 (5.10)"}

From the AlphaSeq antibody data of Engelhart et al. 2022 (doi:10.1038/s41597-022-01779-4), copy in the FLAb collection.